Measured values from article PMC12402003, “Synergy analysis of cyanidin-3-O-glucoside and catechin: absorption, transport and lipid metabolism effects” (Frontiers in Nutrition, 2025).

Sequences of proteins named here, by UniProt entry; tags and fusion partners are left off. A change or cut given only in a name is not applied to a line headed by its entry.
UniProt Q92887: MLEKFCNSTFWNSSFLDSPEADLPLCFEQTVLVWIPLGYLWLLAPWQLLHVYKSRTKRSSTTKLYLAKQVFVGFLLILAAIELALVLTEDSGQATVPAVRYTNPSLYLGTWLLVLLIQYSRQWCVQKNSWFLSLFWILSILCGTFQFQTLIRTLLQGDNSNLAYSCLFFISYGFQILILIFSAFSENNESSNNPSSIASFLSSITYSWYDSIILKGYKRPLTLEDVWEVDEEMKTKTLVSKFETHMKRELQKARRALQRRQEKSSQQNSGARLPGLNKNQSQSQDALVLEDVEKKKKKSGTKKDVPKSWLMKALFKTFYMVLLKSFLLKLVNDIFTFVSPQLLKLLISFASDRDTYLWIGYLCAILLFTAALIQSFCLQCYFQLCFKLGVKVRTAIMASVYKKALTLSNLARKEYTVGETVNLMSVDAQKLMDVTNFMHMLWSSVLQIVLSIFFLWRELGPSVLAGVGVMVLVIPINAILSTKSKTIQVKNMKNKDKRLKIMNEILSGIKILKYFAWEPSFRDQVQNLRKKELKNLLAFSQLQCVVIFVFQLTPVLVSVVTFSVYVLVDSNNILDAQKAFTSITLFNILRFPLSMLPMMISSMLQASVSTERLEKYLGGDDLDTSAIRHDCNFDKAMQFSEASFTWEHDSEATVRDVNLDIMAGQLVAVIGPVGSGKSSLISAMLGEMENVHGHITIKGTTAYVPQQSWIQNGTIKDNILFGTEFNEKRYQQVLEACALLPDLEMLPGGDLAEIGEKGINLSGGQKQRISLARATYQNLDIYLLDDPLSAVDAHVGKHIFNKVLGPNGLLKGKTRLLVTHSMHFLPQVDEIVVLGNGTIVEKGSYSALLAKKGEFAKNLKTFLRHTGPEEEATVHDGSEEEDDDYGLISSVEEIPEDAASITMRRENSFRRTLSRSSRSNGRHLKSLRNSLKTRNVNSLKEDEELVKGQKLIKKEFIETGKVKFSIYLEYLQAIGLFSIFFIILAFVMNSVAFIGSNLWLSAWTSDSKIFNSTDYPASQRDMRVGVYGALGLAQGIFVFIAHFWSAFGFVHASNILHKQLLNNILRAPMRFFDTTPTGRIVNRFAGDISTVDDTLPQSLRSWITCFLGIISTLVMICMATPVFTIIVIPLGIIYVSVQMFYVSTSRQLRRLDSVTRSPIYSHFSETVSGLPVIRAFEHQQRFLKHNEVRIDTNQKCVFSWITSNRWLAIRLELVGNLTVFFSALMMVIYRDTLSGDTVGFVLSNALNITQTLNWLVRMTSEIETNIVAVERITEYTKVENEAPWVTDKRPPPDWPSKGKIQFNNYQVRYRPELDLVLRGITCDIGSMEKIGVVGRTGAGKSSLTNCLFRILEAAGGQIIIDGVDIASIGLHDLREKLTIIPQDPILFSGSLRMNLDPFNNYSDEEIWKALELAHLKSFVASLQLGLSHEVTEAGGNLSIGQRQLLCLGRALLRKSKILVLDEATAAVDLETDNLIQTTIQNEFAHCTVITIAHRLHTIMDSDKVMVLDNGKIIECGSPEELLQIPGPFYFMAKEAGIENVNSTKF

Biological target: MRP2 (Homo sapiens, UniProt Q92887)
Assay: Bidirectional Caco-2 transport with probenecid (MRP inhibitor)
Conditions: 50 μmol/L, 90 min, + Prob (probenecid 1 mM)
Experimental: Transport assay: The monolayers were pre-incubated at 37°C for 30–40 min with 5% CO2 in a pre-warmed media, which contained Hanks Balanced Salt solution (HBSS, BioWhittaker), HEPES buffer and D-glucose. For the transport of apical (AP) side to basolateral (BL) side, the media was removed after pre-incubation and 0.5 mL of polyphenols was added to the AP side. 1.5 mL of HBSS were added to the BL side. Then 200 μL of samples were taken from the BL side at 30, 60, 90, 120 and 150 min, respectively. The BA sample volumes removed were therewith replenished with same volumes of the HBSS solution. For the transport of BL to AP, polyphenols were added to BL and samples were taken from AP at a series of time points as above mentioned. The TEER was measured from the beginning to the end of the assay.
Caco-2 cells (1×10^5 cells/well) were cultured in 96-well plates for 24 h until differentiation, with a TEER value exceeding 400 Ω·cm^2. Bidirectional transport experiments from AP to BL or from BL to AP were performed as mentioned in the transport assay. The apparent permeability coefficients, cumulative release and initial concentrations and efflux rates were determined. In brief, the total transport time was set to 150 min. For AP to BL transport, 0.5 mL of polyphenols were added to AP with 1.5 mL of HBSS to the BL side. […]

Structure (SMILES): O.Oc1cc(O)c2c(c1)O[C@H](c1ccc(O)c(O)c1)[C@@H](O)C2 [catechin]
- Papp (AP → BL): 3.15 ± 0.14 ×10^−5 cm /s
